Among the data in patent US20180185347A1, “TETRAHYDROCYCLOPENTA[B]INDOLE COMPOUNDS AND PHOSPHODIESTERASE INHIBITORS FOR THE TREATMENT OF THE SIGNS AND SYMPTOMS OF BHP” (Transition Therapeutics (Ireland 2) Limited, priority 2016, published 2018) are AUC(0-t) values, retold here.

The nature of the data set: Dog toxicology program: exposure (AUC0-24). The conditions noted are these: male, in vivo.

In general, AUC(0-t) refers to exposure summed from dosing to a finite time, without extrapolation to infinity.

SMILES strings stand for the structures.

Consider `CC(C)OC(=O)N[C@H]1Cc2c(n(Cc3ccccn3)c3ccc(C#N)cc23)C1` [compound of Formula II, (S)-(7-cyano-4-pyridin-2-ylmethyl-1,2,3,4-tetrahydro-cyclopenta[b]indol-2-yl)-carbamic acid isopropyl ester], for which the AUC(0-t) reads like this: (3 mg/kg/day) 3640 ng·h/mL; (150 mg/kg/day) 53000 ng·h/mL.
